Results: US7094798B1, “Inhibitors of checkpoint kinases (Wee1 and Chk1)” (Pfizer Inc, priority 2002, dated 2006)

Each molecule was assayed against T1, human Wee1 kinase aa215-647 (Homo sapiens, UniProt P30291) (assay: Wee1 inhibition filter binding assay (OY)). Details: isolated Wee1 kinase, Poly Ornithine:Tyrosine (4:1) substrate; read-out: WEE1OY IC50.
T1 construct: human Wee1 kinase aa215-647; purchased Onyx Pharmaceuticals; host or cells: baculovirus protein expression system
T1 sequence (P30291 215-646 limits assumed): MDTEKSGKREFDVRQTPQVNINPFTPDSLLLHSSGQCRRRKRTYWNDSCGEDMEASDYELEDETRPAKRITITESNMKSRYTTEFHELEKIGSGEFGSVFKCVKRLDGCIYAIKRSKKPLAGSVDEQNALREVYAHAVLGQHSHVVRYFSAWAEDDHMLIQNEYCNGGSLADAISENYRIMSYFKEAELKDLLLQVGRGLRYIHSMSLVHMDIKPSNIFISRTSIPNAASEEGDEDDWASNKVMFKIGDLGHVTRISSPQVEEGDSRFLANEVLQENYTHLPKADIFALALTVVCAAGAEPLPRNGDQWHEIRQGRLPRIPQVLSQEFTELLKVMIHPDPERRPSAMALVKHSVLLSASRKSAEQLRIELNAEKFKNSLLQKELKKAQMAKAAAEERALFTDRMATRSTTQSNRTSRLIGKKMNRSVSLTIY
Format: biochemical
For O=C1NC(=O)c2c1c(-c1c(Cl)cccc1Cl)cc1c2c2cc(O)ccc2n1CCO [Example 94, 4-(2,6-Dichlorophenyl)-9-Hydroxy-6-(2-hydroxyethyl)pyrrolo[3,4-c]carbazole-1,3(2H,6H)-dione], the IC50 was 263 nM.
Work on O=C(O)CCn1c2ccc(O)cc2c2c3c(c(-c4ccccc4Cl)cc21)C(=O)NC3=O [Example 230, 3-(4-(2-Chlorophenyl)-9-hydroxy-1,3-dioxo-2,3-dihydropyrrolo[3,4-c]carbazol-6 (1H)-yl)propanoic acid] yielded an IC50 of 9 nM.
For O=C1NC(=O)c2c1c(-c1ccccc1)cc1oc3ccc(O)cc3c21 [Example 369, 9-Hydroxy-4-phenyl-1H-[1] benzofuro[3,2-e]isoindole-1,3(2H)-dione], the IC50 was 428 nM.
